# Apparent affinities of Ab-91 variants for a coronavirus HR2 peptide

Target peptide (SARS-CoV-2 spike, HR2 region): PDVDLGDISGINAS

Each scFv is VL, the linker GGGGSGGGGSGGGGS, VH, as in the parent Ab-91, and differs from it in the CDRs of the heavy chain only.
VL: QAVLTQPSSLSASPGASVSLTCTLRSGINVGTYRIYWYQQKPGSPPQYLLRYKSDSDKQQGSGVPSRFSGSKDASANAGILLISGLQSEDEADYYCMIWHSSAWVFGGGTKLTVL
VH: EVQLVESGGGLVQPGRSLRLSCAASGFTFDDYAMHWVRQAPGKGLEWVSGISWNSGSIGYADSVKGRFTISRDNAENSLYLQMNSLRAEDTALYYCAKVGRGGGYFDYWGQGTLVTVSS

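The parent was found by panning a naive human phage display library on the peptide. Variants in AAYL51 differ from the parent at up to three CDR positions; double and triple changes were sampled at random. In AlphaSeq, yeast of one mating type display the scFv and yeast of the other type display the target. After mating in shaken culture at 30 °C for 16 h, diploids were selected and their barcode pairs sequenced. Read counts were normalised to the haploid input and turned into Kd by a linear fit to BCL2-family pairs of known affinity, for each replicate. There are three technical replicates.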

Changes read parent residue, position, new residue, counted from the first residue of the VH shown.
All variants listed here change Y105 of the VH, counted from its first residue.
Kd is apparent (estimated from mating counts) and averaged on the log scale over replicates with a signal. Smaller is tighter.
A pair that was not seen in any replicate is written "not detected"; this usually means weak binding, but a binder can also be missed.
As a blank, each scFv also met three strains without target: over library AAYL51, 21% of these pairings were detected, typically at 34 µM and seldom below 1.8 µM. Also given: how often the same scFv was detected with the empty control strains.

| changes | Kd | detected | control signals |
|---|---|---|---|
| G26K+H35T+Y105V | not detected | 0 of 3 | 5 of 9 |
| V99F+G104E+Y105K | 64 µM | 1 of 3 | 4 of 9 |
| A33Q+S57C+Y105H | 210 µM | 3 of 3 | 6 of 9 |
| Y32Q+W53A+Y105R | 40 µM | 1 of 3 | 1 of 9 |
| D30P+Y105C | 1.3 µM | 3 of 3 | 3 of 9 |
| S52H+K65C+Y105L | 44 µM | 2 of 3 | 1 of 9 |
| N54E+D62P+Y105A | 1.5 µM | 3 of 3 | 0 of 9 |
| S55A+S63T+Y105D | 44 µM | 1 of 3 | 0 of 9 |
| Y105D | 5.4 nM | 3 of 3 | 1 of 9 |
| I51P+R101M+Y105I | 120 µM | 1 of 3 | 3 of 9 |
| A33N+Y105G+Y108G | 350 µM | 2 of 3 | 5 of 9 |
| Y60K+Y105A+F106T | not detected | 0 of 3 | 4 of 9 |
| F29C+G104D+Y105A | 9.2 nM | 3 of 3 | 2 of 9 |
| Y32P+Y105A+F106P | not detected | 0 of 3 | 0 of 9 |
| H35P+R101K+Y105S | not detected | 0 of 3 | 0 of 9 |
| D31R+Y105N+F106A | 2.4 nM | 3 of 3 | 4 of 9 |
| F29D+H35K+Y105K | 650 µM | 3 of 3 | 4 of 9 |
| Y60L+Y105P | 250 µM | 2 of 3 | 0 of 9 |
| D30G+Y32S+Y105Q | 91 nM | 3 of 3 | 5 of 9 |
| F29I+V99Y+Y105M | 15 nM | 3 of 3 | 5 of 9 |
| S52H+V99K+Y105D | 110 µM | 1 of 3 | 3 of 9 |
| S57D+I58F+Y105M | not detected | 0 of 3 | 0 of 9 |
| M34Q+G100L+Y105K | 210 µM | 1 of 3 | 3 of 9 |
| I58T+Y60V+Y105Q | 1.3 µM | 3 of 3 | 2 of 9 |
| Y32M+Y105Q | not detected | 0 of 3 | 3 of 9 |
| G50D+W53K+Y105G | 430 µM | 2 of 3 | 5 of 9 |
| Y105I | 680 nM | 3 of 3 | 1 of 9 |
| M34Q+N54Q+Y105V | not detected | 0 of 3 | 0 of 9 |
| A33C+S52N+Y105Q | not detected | 0 of 3 | 2 of 9 |
| F27K+R101W+Y105S | 61 µM | 1 of 3 | 1 of 9 |
| S55E+V99G+Y105C | 590 nM | 3 of 3 | 1 of 9 |
| Y105R | 380 µM | 1 of 3 | 1 of 9 |
| N54C+Y105M | not detected | 0 of 3 | 1 of 9 |
| G59A+K65E+Y105K | 12 µM | 3 of 3 | 7 of 9 |
| S52Y+Y105P+F106M | not detected | 0 of 3 | 0 of 9 |
| G56I+Y105A+Y108Q | not detected | 0 of 3 | 1 of 9 |
| T28D+V99C+Y105D | 1.4 µM | 3 of 3 | 8 of 9 |
| S52A+S63H+Y105T | not detected | 0 of 3 | 3 of 9 |
| W53G+V64T+Y105A | 110 nM | 3 of 3 | 0 of 9 |
| G26K+A33R+Y105K | 96 µM | 1 of 3 | 2 of 9 |
| S52R+Y105E+F106K | 130 µM | 2 of 3 | 3 of 9 |
| S63F+Y105E+Y108T | 26 µM | 3 of 3 | 2 of 9 |
| S52G+S57A+Y105H | 620 µM | 2 of 3 | 3 of 9 |
| G50R+W53Q+Y105M | 89 µM | 3 of 3 | 6 of 9 |
| R101T+Y105G+D107G | not detected | 0 of 3 | 0 of 9 |
| T28M+Y105V+D107C | 560 nM | 3 of 3 | 0 of 9 |
| Y32R+A61D+Y105Q | not detected | 0 of 3 | 2 of 9 |
| F27D+T28S+Y105S | 8.4 nM | 3 of 3 | 5 of 9 |
| G104A+Y105L | 17 µM | 1 of 3 | 2 of 9 |
| S57W+V64A+Y105C | 84 µM | 3 of 3 | 5 of 9 |
| K65D+G104T+Y105T | 210 µM | 3 of 3 | 5 of 9 |
| F27L+G103R+Y105H | 7.0 µM | 2 of 3 | 2 of 9 |
| G104A+Y105W | 16 nM | 3 of 3 | 5 of 9 |
| G59T+Y105T+F106Q | 11 µM | 1 of 3 | 6 of 9 |
| F27M+F29V+Y105W | not detected | 0 of 3 | 1 of 9 |
| G103Y+Y105H | not detected | 0 of 3 | 0 of 9 |
| I51T+Y105M+Y108P | 6.3 µM | 2 of 3 | 1 of 9 |
| A33L+I58Y+Y105F | 5.0 µM | 1 of 3 | 2 of 9 |
| S52A+A61P+Y105M | not detected | 0 of 3 | 2 of 9 |
| Y105V | not detected | 0 of 3 | 0 of 9 |
| G104K+Y105L | 780 µM | 1 of 3 | 0 of 9 |
| D31K+A33S+Y105C | 5.6 nM | 3 of 3 | 6 of 9 |
| F27S+V64Q+Y105D | not detected | 0 of 3 | 0 of 9 |
| T28V+S57F+Y105K | 87 µM | 2 of 3 | 4 of 9 |
| I51C+I58D+Y105S | 65 µM | 3 of 3 | 3 of 9 |
| V64P+Y105Q | 14 µM | 2 of 3 | 4 of 9 |
| Y32T+G59E+Y105M | 1.1 µM | 1 of 3 | 3 of 9 |
| T28F+I58H+Y105G | 35 µM | 3 of 3 | 2 of 9 |
| A33K+G50C+Y105G | 46 µM | 1 of 3 | 3 of 9 |
| F27D+D62K+Y105D | 150 µM | 1 of 3 | 4 of 9 |
| S52P+A61L+Y105L | 110 µM | 1 of 3 | 2 of 9 |
| K65Q+Y105A+D107Q | 120 µM | 3 of 3 | 7 of 9 |
| V99L+G104Y+Y105Q | not detected | 0 of 3 | 2 of 9 |

The measurements come from Engelhart et al. 2022 (doi:10.1038/s41597-022-01779-4) through the FLAb antibody collection.